Data on 1 compound can be found in ChEMBL document CHEMBL1136077, “Nicotinyl aspartyl ketones as inhibitors of caspase-3” (Bioorg Med Chem Lett, 2003).

The target in this test is T1, Caspase-3 (Homo sapiens, UniProt P42574).
T1 sequence (P42574 whole entry): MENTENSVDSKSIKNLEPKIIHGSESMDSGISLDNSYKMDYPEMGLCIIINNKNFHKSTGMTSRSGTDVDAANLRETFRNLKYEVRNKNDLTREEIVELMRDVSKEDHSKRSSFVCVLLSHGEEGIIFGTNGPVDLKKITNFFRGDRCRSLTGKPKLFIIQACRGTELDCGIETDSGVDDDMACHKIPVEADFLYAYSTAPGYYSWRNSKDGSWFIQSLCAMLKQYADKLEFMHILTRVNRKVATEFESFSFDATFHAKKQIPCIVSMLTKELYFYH
The experiment in a line: Inhibitory concentration required against human Caspase-3.

In turn, `CC(=O)N[C@@H](CC(=O)O)C(=O)N[C@@H](CCC(=O)O)C(=O)N[C@H](C(=O)N[C@H](C=O)CC(=O)O)C(C)C` registered an IC50 of 27 nM.

As usually defined, the IC50 is the concentration needed to halve the response being measured. Higher therefore signals a need for much substance.
